Test results published in paper PMC3185582 (Viruses, 2010).

Assays:
[1] = in vivo, po; cited from earlier work

SMILES: O=C(NN1C(=O)[C@@H]2[C@@H]3C=C[C@@H]([C@H]4C[C@@H]34)[C@@H]2C1=O)c1ccc(C(F)(F)F)cc1 [ST-246, Tecovirimat]
- mean times to maximum concentration [1]: 3 to 4 h
- exposure at the end of the study relative to Day 1 (28 day study): 25% of the Day 1 exposure to equivalent exposure
- exposure at the last time point relative to first day (three month study): nearly double
